# Results reported in patent publication US7407934B2, “Methods for regulating postprandial blood glucose” (Amylin Pharmaceuticals, Inc., priority 1993, dated 2008).
# pEC50: −log10 of the molar value.
# Assays:
# [1] = system: insulin-stimulated glycogen synthesis in soleus muscle; test: Soleus muscle assay (inhibition of insulin-stimulated glycogen synthesis); format: cell-based, rat
# Procedure: Concentrations of peptide dissolved in carrier-free buffers are determined by quantitative amino acid analysis, as described therein. The ability of compounds to act as agonists in this assay is determined by measuring EC50 values. […] Similar results were obtained with other agonist compounds listed above.
# [2] = Amylin activity in vivo in treated test animals (hyperlactemia, hyperglycemia)
# [3] = biological target: T1, amylin receptors (Rattus norvegicus, UniProt P32214); test: Receptor binding assay (competition with 125I Bolton-Hunter rat amylin)
# T1 construct: This basal forebrain tissue, containing the nucleus accumbens and surrounding regions, was weighed and homogenized; from tissue; host or cells: rat basal forebrain (nucleus accumbens and surrounding regions) membranes
# T1 sequence (P32214 25-516): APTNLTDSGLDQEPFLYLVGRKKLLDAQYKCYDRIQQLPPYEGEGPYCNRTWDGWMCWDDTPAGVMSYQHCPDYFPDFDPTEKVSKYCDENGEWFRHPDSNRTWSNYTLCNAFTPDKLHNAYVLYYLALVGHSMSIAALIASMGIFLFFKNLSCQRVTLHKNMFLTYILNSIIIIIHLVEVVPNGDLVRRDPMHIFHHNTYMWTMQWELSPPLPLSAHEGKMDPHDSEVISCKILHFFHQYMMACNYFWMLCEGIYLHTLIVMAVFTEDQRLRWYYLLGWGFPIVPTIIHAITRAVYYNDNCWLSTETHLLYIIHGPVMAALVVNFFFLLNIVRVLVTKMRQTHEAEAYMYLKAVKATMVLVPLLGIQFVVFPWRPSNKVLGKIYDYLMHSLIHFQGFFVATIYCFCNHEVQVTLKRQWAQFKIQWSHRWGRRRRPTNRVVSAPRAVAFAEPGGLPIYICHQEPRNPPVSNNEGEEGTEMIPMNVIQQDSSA
# Text: A preferred source of the membrane preparations used in the assay is the basal foregrain which comprises membranes from the nucleus accumbens and surrounding regions.
# Unlabeled peptides were obtained from BACHEM Inc. (Torrance, Calif.) and Peninsula Laboratories (Belmont, Calif.).
# Male Sprague-Dawley rats (200-250) grams were sacrificed by decapitation. Brains were removed to cold phosphate-buffered saline (PBS). From the ventral surface, cuts were made rostral to the hypothalamus, bounded laterally by the olfactory tracts and extending at a 45° angle medially from these tracts. This basal forebrain tissue, containing the nucleus accumbens and surrounding regions, was weighed and homogenized in ice-cold 20 mM HEPES buffer (20 mM HEPS acid, pH adjusted to 7.4 with NaOH at 23° C.). […] The final membrane pellet was resuspended in 20 nM HEPES buffer containing 0.2 mM phenylmethylsulfonyl fluoride (PMSF).
# Solutions were incubated for 60 minutes at 23° C. […] Filters were washed immediately before filtration with 5 ml cold PBS, and immediately after filtration with 15 ml cold PBS.
pEC50 [1],Competition with amylin / receptor binding activity (in words) [3],SMILES,Amylin activity in vivo [2]
8.55,compete with amylin,"CC[C@H](C)[C@H](NC(=O)[C@@H]1CCCN1C(=O)CNC(=O)[C@H](Cc1ccccc1)NC(=O)[C@H](CC(N)=O)NC(=O)[C@H](CC(N)=O)NC(=O)[C@H](CO)NC(=O)[C@H](CO)NC(=O)[C@H](CCCNC(=N)N)NC(=O)[C@@H](NC(=O)[C@H](CC(C)C)NC(=O)[C@H](Cc1ccccc1)NC(=O)[C@H](CC(N)=O)NC(=O)[C@H](C)NC(=O)[C@H](CC(C)C)NC(=O)[C@H](CCCNC(=N)N)NC(=O)[C@H](CCC(N)=O)NC(=O)[C@@H](NC(=O)[C@H](C)NC(=O)[C@@H]1CSSC[C@H](NC(=O)[C@@H](N)CCCCN)C(=O)N[C@@H](CC(N)=O)C(=O)N[C@@H]([C@@H](C)O)C(=O)N[C@@H](C)C(=O)N[C@@H]([C@@H](C)O)C(=O)N1)[C@@H](C)O)C(C)C)C(=O)N[C@@H](CC(C)C)C(=O)N1CCC[C@H]1C(=O)N[C@@H](CO)C(=O)N[C@H](C(=O)N[C@@H](CC(N)=O)C(=O)N[C@H](C(=O)NCC(=O)N[C@@H](CO)C(=O)N[C@@H](CC(N)=O)C(=O)N[C@H](C(=O)N[C@@H](Cc1ccc(O)cc1)C(N)=O)[C@@H](C)O)C(C)C)[C@@H](C)O [^18Arg^25,28Pro-h-Amylin]",marked hyperlactemia followed by hyperglycemia
8.43,compete with amylin,"CC[C@H](C)[C@H](NC(=O)[C@@H]1CCCN1C(=O)CNC(=O)[C@H](Cc1ccccc1)NC(=O)[C@H](CC(N)=O)NC(=O)[C@H](CC(N)=O)NC(=O)[C@H](CO)NC(=O)[C@H](CO)NC(=O)[C@H](Cc1c[nH]cn1)NC(=O)[C@@H](NC(=O)[C@H](CC(C)C)NC(=O)[C@H](Cc1ccccc1)NC(=O)[C@H](CC(N)=O)NC(=O)[C@H](C)NC(=O)[C@H](CC(C)C)NC(=O)[C@H](CCCNC(=N)N)NC(=O)[C@H](CCC(N)=O)NC(=O)[C@@H](NC(=O)[C@H](C)NC(=O)[C@@H]1CSSC[C@H](NC(=O)[C@@H](N)CCCCN)C(=O)N[C@@H](CC(N)=O)C(=O)N[C@@H]([C@@H](C)O)C(=O)N[C@@H](C)C(=O)N[C@@H]([C@@H](C)O)C(=O)N1)[C@@H](C)O)C(C)C)C(=O)N[C@@H](CC(C)C)C(=O)N1CCC[C@H]1C(=O)N1CCC[C@H]1C(=O)N[C@H](C(=O)N[C@@H](CC(N)=O)C(=O)N[C@H](C(=O)NCC(=O)N[C@@H](CO)C(=O)N[C@@H](CC(N)=O)C(=O)N[C@H](C(=O)N[C@@H](Cc1ccc(O)cc1)C(N)=O)[C@@H](C)O)C(C)C)[C@@H](C)O [^25,28,29Pro-h-Amylin]",marked hyperlactemia followed by hyperglycemia
8.58,,"CC[C@H](C)[C@H](NC(=O)[C@H](C)NC(=O)CNC(=O)[C@H](Cc1ccccc1)NC(=O)[C@H](CC(N)=O)NC(=O)[C@H](CC(N)=O)NC(=O)[C@H](CO)NC(=O)[C@H](CO)NC(=O)[C@H](Cc1c[nH]cn1)NC(=O)[C@@H](NC(=O)[C@H](CC(C)C)NC(=O)[C@H](Cc1ccccc1)NC(=O)[C@H](CC(N)=O)NC(=O)[C@H](C)NC(=O)[C@H](CC(C)C)NC(=O)[C@H](CCCNC(=N)N)NC(=O)[C@H](CCC(N)=O)NC(=O)[C@@H](NC(=O)[C@H](C)NC(=O)[C@@H]1CSSC[C@H](NC(=O)[C@@H](N)CCCCN)C(=O)N[C@@H](CC(N)=O)C(=O)N[C@@H]([C@@H](C)O)C(=O)N[C@@H](C)C(=O)N[C@@H]([C@@H](C)O)C(=O)N1)[C@@H](C)O)C(C)C)C(=O)N[C@@H](CC(C)C)C(=O)N1CCC[C@H]1C(=O)N[C@@H](CO)C(=O)N[C@H](C(=O)N[C@@H](CC(N)=O)C(=O)N[C@H](C(=O)NCC(=O)N[C@@H](CO)C(=O)N[C@@H](CC(N)=O)C(=O)N[C@H](C(=O)N[C@@H](Cc1ccc(O)cc1)C(N)=O)[C@@H](C)O)C(C)C)[C@@H](C)O [^28Pro-h-Amylin, ^28Pro-human-Amylin]",marked hyperlactemia followed by hyperglycemia
8.73,compete with amylin,"CC[C@H](C)[C@H](NC(=O)[C@@H]1CCCN1C(=O)CNC(=O)[C@H](Cc1ccccc1)NC(=O)[C@H](CC(N)=O)NC(=O)[C@H](CC(N)=O)NC(=O)[C@H](CO)NC(=O)[C@H](CO)NC(=O)[C@H](CCCNC(=N)N)NC(=O)[C@@H](NC(=O)[C@H](CC(C)C)NC(=O)[C@H](Cc1ccccc1)NC(=O)[C@H](CC(N)=O)NC(=O)[C@H](C)NC(=O)[C@H](CC(C)C)NC(=O)[C@H](CCCNC(=N)N)NC(=O)[C@H](CCC(N)=O)NC(=O)[C@@H](NC(=O)[C@H](C)NC(=O)[C@@H]1CSSC[C@H](N)C(=O)N[C@@H](CC(N)=O)C(=O)N[C@@H]([C@@H](C)O)C(=O)N[C@@H](C)C(=O)N[C@@H]([C@@H](C)O)C(=O)N1)[C@@H](C)O)C(C)C)C(=O)N[C@@H](CC(C)C)C(=O)N1CCC[C@H]1C(=O)N1CCC[C@H]1C(=O)N[C@H](C(=O)N[C@@H](CC(N)=O)C(=O)N[C@H](C(=O)NCC(=O)N[C@@H](CO)C(=O)N[C@@H](CC(N)=O)C(=O)N[C@H](C(=O)N[C@@H](Cc1ccc(O)cc1)C(N)=O)[C@@H](C)O)C(C)C)[C@@H](C)O [des-^1Lys^18Arg^25,28,29Pro-h-Amylin]",
8.42,compete with amylin,"CC[C@H](C)[C@H](NC(=O)[C@@H]1CCCN1C(=O)CNC(=O)[C@H](Cc1ccccc1)NC(=O)[C@H](CC(N)=O)NC(=O)[C@H](CC(N)=O)NC(=O)[C@H](CO)NC(=O)[C@H](CO)NC(=O)[C@H](CCCNC(=N)N)NC(=O)[C@@H](NC(=O)[C@H](CC(C)C)NC(=O)[C@H](Cc1ccccc1)NC(=O)[C@H](CC(N)=O)NC(=O)[C@H](C)NC(=O)[C@H](CC(C)C)NC(=O)[C@H](CCCNC(=N)N)NC(=O)[C@H](CCC(N)=O)NC(=O)[C@@H](NC(=O)[C@H](C)NC(=O)[C@@H]1CSSC[C@H](N)C(=O)N[C@@H](CC(N)=O)C(=O)N[C@@H]([C@@H](C)O)C(=O)N[C@@H](C)C(=O)N[C@@H]([C@@H](C)O)C(=O)N1)[C@@H](C)O)C(C)C)C(=O)N[C@@H](CC(C)C)C(=O)N1CCC[C@H]1C(=O)N[C@@H](CO)C(=O)N[C@H](C(=O)N[C@@H](CC(N)=O)C(=O)N[C@H](C(=O)NCC(=O)N[C@@H](CO)C(=O)N[C@@H](CC(N)=O)C(=O)N[C@H](C(=O)N[C@@H](Cc1ccc(O)cc1)C(N)=O)[C@@H](C)O)C(C)C)[C@@H](C)O [des-^1Lys^18Arg^25,28Pro-h-Amylin]",marked hyperlactemia followed by hyperglycemia
8.38,compete with amylin,"CC[C@H](C)[C@H](NC(=O)[C@@H]1CCCN1C(=O)CNC(=O)[C@H](Cc1ccccc1)NC(=O)[C@H](CC(N)=O)NC(=O)[C@H](CC(N)=O)NC(=O)[C@H](CO)NC(=O)[C@H](CO)NC(=O)[C@H](Cc1c[nH]cn1)NC(=O)[C@@H](NC(=O)[C@H](CC(C)C)NC(=O)[C@H](Cc1ccccc1)NC(=O)[C@H](CC(N)=O)NC(=O)[C@H](C)NC(=O)[C@H](CC(C)C)NC(=O)[C@H](CCCNC(=N)N)NC(=O)[C@H](CCC(N)=O)NC(=O)[C@@H](NC(=O)[C@H](C)NC(=O)[C@@H]1CSSC[C@H](N)C(=O)N[C@@H](CC(N)=O)C(=O)N[C@@H]([C@@H](C)O)C(=O)N[C@@H](C)C(=O)N[C@@H]([C@@H](C)O)C(=O)N1)[C@@H](C)O)C(C)C)C(=O)N[C@@H](CC(C)C)C(=O)N1CCC[C@H]1C(=O)N1CCC[C@H]1C(=O)N[C@H](C(=O)N[C@@H](CC(N)=O)C(=O)N[C@H](C(=O)NCC(=O)N[C@@H](CO)C(=O)N[C@@H](CC(N)=O)C(=O)N[C@H](C(=O)N[C@@H](Cc1ccc(O)cc1)C(N)=O)[C@@H](C)O)C(C)C)[C@@H](C)O [des-^1Lys^25,28,29Pro-h-Amylin]",

SMILES,pEC50 [1],Competition with amylin / receptor binding activity (in words) [3],Amylin activity in vivo [2]
"CC[C@H](C)[C@H](NC(=O)[C@H](C)NC(=O)CNC(=O)[C@H](Cc1ccccc1)NC(=O)[C@H](CC(N)=O)NC(=O)[C@H](CC(N)=O)NC(=O)[C@H](CO)NC(=O)[C@H](CO)NC(=O)[C@H](Cc1c[nH]cn1)NC(=O)[C@@H](NC(=O)[C@H](CC(C)C)NC(=O)[C@H](Cc1ccccc1)NC(=O)[C@H](CC(N)=O)NC(=O)[C@H](C)NC(=O)[C@H](CC(C)C)NC(=O)[C@H](CCCNC(=N)N)NC(=O)[C@H](CCC(N)=O)NC(=O)[C@@H](NC(=O)[C@H](C)NC(=O)[C@@H]1CSSC[C@H](N)C(=O)N[C@@H](CC(N)=O)C(=O)N[C@@H]([C@@H](C)O)C(=O)N[C@@H](C)C(=O)N[C@@H]([C@@H](C)O)C(=O)N1)[C@@H](C)O)C(C)C)C(=O)N[C@@H](CC(C)C)C(=O)N[C@@H](CO)C(=O)N[C@@H](CO)C(=O)N[C@H](C(=O)N[C@@H](CC(N)=O)C(=O)N[C@H](C(=O)NCC(=O)N[C@@H](CO)C(=O)N[C@@H](CC(N)=O)C(=O)N[C@H](C(=O)N[C@@H](Cc1ccc(O)cc1)C(N)=O)[C@@H](C)O)C(C)C)[C@@H](C)O [^2,37h-Amylin, des-^1Lys-h-Amylin]",8.79,,marked hyperlactemia followed by hyperglycemia
